Source: EP0343961B1, “Aryl- and heteroaryl piperazinyl carboxamides having central nervous system activity” (priority 1988, dated 1989)

Sequences of proteins named here, by UniProt entry; tags and fusion partners are left off.
UniProt P19327, whole entry: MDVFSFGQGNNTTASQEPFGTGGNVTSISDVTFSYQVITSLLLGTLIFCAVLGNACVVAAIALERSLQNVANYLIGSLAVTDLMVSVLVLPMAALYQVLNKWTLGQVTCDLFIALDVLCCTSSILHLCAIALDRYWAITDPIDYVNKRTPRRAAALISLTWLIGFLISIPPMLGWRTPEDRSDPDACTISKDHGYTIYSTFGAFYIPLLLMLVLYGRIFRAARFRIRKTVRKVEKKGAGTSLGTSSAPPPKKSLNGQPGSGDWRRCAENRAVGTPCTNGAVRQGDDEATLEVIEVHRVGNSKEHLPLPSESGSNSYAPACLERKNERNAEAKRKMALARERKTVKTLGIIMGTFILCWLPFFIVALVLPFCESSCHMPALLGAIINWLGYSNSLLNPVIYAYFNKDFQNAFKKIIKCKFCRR

Biological target: 5-HT1A serotonin receptor (Rattus norvegicus, UniProt P19327)

CC1(C)CC(=O)N(CCCCN2CCN(c3ncccn3)CC2)C(=O)C1 [Gepirone, 4,4-dimethyl-1-[4-[4-(2-pyrimidinyl)-1-piperazinyl]-butyl]-2,6-piperidinedione, reference compound]
Ki: 852 nM
